# The entries are a selection whose mix differs from that of the whole data set. Inconclusive results are not listed. Active and inactive are the calls of the source. Calls follow the shape of the dose curve; as a rule, active = well fitted inhibition curve with a large enough effect; inconclusive = small, poorly fitted or top-dose-only effect, or effect the other way; inactive = flat fitted curve, though single readings scatter.
# Assay: Nrf2 qHTS screen for inhibitors; also: nearly all actives have a fitted effect of over 60% in size
# Conditions: A549 ARE-Fluc reporter, luciferase luminescence, 18-24 h; series mostly up to 46 µM; activity change, negative = inhibition: at the top concentration
# % is scaled to controls: 0 for no effect and ±100 for the full control effect; potency is read from the fitted curve at half-maximal effect.
SMILES,"activity change, negative = inhibition",Potency
CCN(CC)CCCOC(=O)C(O)(c1ccccc1)c1ccccc1,inactive: 10.2%,
COc1ccccc1OP(C)(=O)Nc1ccc(C)cc1 (stereo unspecified),inactive: 13.7%,
Cc1ccc(NP(C)(=O)Oc2ccccc2)c(C)c1 (stereo unspecified),inactive: -6.51%,
CCOC(=O)c1ccc(NP(C)(=O)Oc2ccccc2)cc1 (stereo unspecified),inactive: -8.57%,
Cc1cc(C)cc(OP(C)(N)=O)c1 (stereo unspecified),inactive: 8.07%,
COc1ccccc1OP(C)(=O)Nc1cc(Cl)ccc1C (stereo unspecified),inactive: -9.95%,
COc1ccc(OP(C)(=O)Nc2cccc(F)c2)cc1 (stereo unspecified),inactive: 9.57%,
O=[N+]([O-])c1cc([N+](=O)[O-])c(Nc2cccnc2)c([N+](=O)[O-])c1,inactive: 1.45%,
O=[N+]([O-])c1ccc2c(c1)C=Nc1ccccc1O2,inactive: -5.72%,
Cc1cccc(C)c1OP(C)(N)=O (stereo unspecified),inactive: 10.1%,
CP(=O)(Nc1ccccc1Br)Oc1ccccc1 (stereo unspecified),inactive: 7.33%,
COc1ccccc1OP(C)(=O)Nc1ccccc1 (stereo unspecified),inactive: 4.17%,
O=[N+]([O-])c1cc([N+](=O)[O-])c(O)c([N+](=O)[O-])c1.c1ccc(Oc2ccncc2)cc1,inactive: -10.6%,
CCOC(=O)c1ccc(NP(C)(=O)Oc2ccc(OC)cc2)cc1 (stereo unspecified),inactive: -22.5%,
CP(=O)(Nc1ccccn1)Oc1ccc(Cl)cc1 (stereo unspecified),inactive: 5.57%,
Cc1cccc(C)c1OP(C)(=O)Nc1ccc(SC(F)(F)F)cc1 (stereo unspecified),inactive: 15.8%,
CP(=O)(Oc1ccccc1)OC(c1ccccc1)C(F)(F)F (stereo unspecified),inactive: 3.62%,
CP(=O)(NC(=O)Nc1ccccc1)Oc1ccccc1 (stereo unspecified),inactive: 9.03%,
Cc1nc2ccc3ccccc3c2s1.O=[N+]([O-])c1cc([N+](=O)[O-])c(O)c([N+](=O)[O-])c1,inactive: -3.08%,
O=[N+]([O-])c1cc([N+](=O)[O-])c(-n2nnc3ccccc32)c([N+](=O)[O-])c1,inactive: -14%,
CN1CCCCC1COC(=O)C1(O)c2ccccc2CCc2ccccc21 (stereo unspecified),inactive: 12.3%,
COc1ccccc1OP(C)(=O)Nc1c(C)cccc1C (stereo unspecified),inactive: 12.3%,
CC1=C2N=C(C=C3N=C(C(C)=C4[N-][C@@](C)([C@@H]5N=C1[C@](C)(CCC(=O)NC[C@@H](C)OP(=O)([O-])O[C@H]1[C@@H](O)[C@@H](n6cnc7cc(C)c(C)cc76)O[C@@H]1CO)[C@H]5CC(N)=O)[C@@](C)(CC(N)=O)[C@@H]4CCC(N)=O)[C@@](C)(CC(N)=O)[C@@H]3CCC(N)=O)C(C)(C)[C@@H]2CCC(N)=O.[C-]#N.[Co+3],inactive: -22.4%,
O=[N+]([O-])c1cc([N+](=O)[O-])c(Nc2nnnn2CCO)c([N+](=O)[O-])c1,inactive: -10.7%,
CC1CCOC(=O)C=CC=CC(=O)OC2CC3OC4C5OC5(C)CCC4(COC(=O)C1O)C2(C)C31CO1 (stereo unspecified),,active: 16.4 nM
CC1=NCCc2c1[nH]c1ccccc21.O=[N+]([O-])c1cc([N+](=O)[O-])c(O)c([N+](=O)[O-])c1,inactive: 14%,
